From patent publication US20240009137A1, “ORAL THERAPEUTIC DELIVERY” (ROYAL MELBOURNE INSTITUTE OF TECHNOLOGY, priority 2020, published 2024)

Test: Human coagulation factor X in blood plasma (ELISA) after SC injection or oral capsule
Assay type: in vivo, Sprague Dawley rats
Method: Four male Sprague Dawley rats were used as controls. Each rat was anaesthetised with isoflurane followed by preparation of the saphenous vein. The rats were given 0.5 mg/kg of human coagulation factor X via SC injection, immediately following this they were placed on a heat-mat until they regained consciousness, before being housed in pairs in boxes. Blood collection (150 μl) was taken via the saphenous vein at 0, 30-, 70-, 120-,180-, 240- and 360-mins post-injection. The blood concentration of the protein in the blood was tested using the relevant ELISA kit for human coagulation factor X.
Eight male Sprague Dawley rats were used. Each rat was anaesthetised with isoflurane followed by preparation of the saphenous vein and the first blood collection (150 μl). An enteric capsule with a thick polymer coating of approximately 160 μm containing 0.5 mg/kg of the human coagulation factor X encapsulated in MO lipid cubic phase was then introduced via oral gavage into the rat stomach. Immediately following this they were placed on a heat-mat until they regained consciousness, before being housed in pairs. Blood collection (150 μl) was taken via the saphenous vein at 0, 35-, 50-, 120-,180-, 240- and 360-mins post-injection
All data are analysed on a Clariostar Plate Reader to determine concentration against a standard curve for the relevant drug.
Concentrations provided in FIGS. 10-13 are the measured concentration of the drug in the blood plasma (determined using specific Elisa kits) and are in units of ng/ml. The initial drug concentration measured at the 0 time point has been set to zero in each case and other data scaled relative to this.

[1] = oral enteric capsule vs SC, 0.5 mg/kg
[2] = oral enteric capsule, MO cubic phase, 0.5 mg/kg

Substance: human coagulation factor X: Human Coagulation Factor 10 (Resolving Images), given SC or in MO cubic phase within enteric capsule
- time of maximum plasma concentration (SC injection 0.5 mg/kg): 30 min
- maximum drug concentration in blood plasma (SC injection 0.5 mg/kg, range over four rats): 9 to 10 ng/mL
- plasma concentration after sharp decrease from maximum (SC injection 0.5 mg/kg, over the subsequent 90 min after the peak): 1 ng/mL
- maximum drug concentration in blood plasma (oral enteric capsule (approx. 160 μm coating), MO cubic phase, 0.5 mg/kg, range over rats): 3.7 to 5.2 ng/mL
- maximum drug plasma concentration as % of that following SC injection [1]: 47%
- overall bioavailability as % of that following SC injection [1]: 88.52%
- time by which baseline drug concentrations are reached [2]: ≤ 300 min
- time of maximum plasma concentration [2]: 50 min
